According to paper PMC11756396, “Dynamic allostery in the peptide/MHC complex enables TCR neoantigen selectivity” (Nature Communications, 2025):

Experiments:
T cells = tested on: T cells; set-up: method as in 2 sources, one per row (each row's own in cited_ref): ref 5, ref 16 ||| ref 15 = [15]; PMID 35484264; doi:10.1038/s41591-022-01786-3; 15. Chandran, S. S. et al. Immunogenicity and therapeutic targeting of a public neoantigen derived from mutated PIK3CA. Nat. Med. 28 , 946–957 (2022). 10.1038/s41591-022-01786-3 PMC9117146 35484264; settings: numerous T cell clones; cited from earlier work
[1] = tested on: TCR4-expressing T cells co-cultured with HLA-A3+ antigen presenting cells (Cos-7); experiment: CD107a degranulation of TCR4-transduced T cells, peptide-pulsed HLA-A3+ APC (flow cytometry); settings: 6 h co-culture, E:T 1:1, mean of three replicates

Substance	T cell responses (T cells)	CD107a, absolute frequency ([1]; peptide 1.00E-04 ug/mL)	CD107a, absolute frequency ([1]; peptide 1.00E-06 ug/mL)
MART-1: nonameric MART-1 tumor antigen presented by HLA-A2 [reference compound]	measurable responses		
AHHGGWTTK [WT peptide]		1.567	1.573
